Measured affinities in a library of Ab-91 heavy chain variants

Binding partner: SARS-CoV-2 spike HR2 peptide, sequence PDVDLGDISGINAS.

Ab-91 is the parent antibody, in scFv form: VL, then a 15-residue (Gly4Ser)3 linker, then VH. The light chain is unchanged in all variants.
VL: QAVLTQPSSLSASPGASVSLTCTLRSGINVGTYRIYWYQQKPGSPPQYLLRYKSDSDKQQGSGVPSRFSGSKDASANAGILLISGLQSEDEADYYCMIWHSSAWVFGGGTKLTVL
VH: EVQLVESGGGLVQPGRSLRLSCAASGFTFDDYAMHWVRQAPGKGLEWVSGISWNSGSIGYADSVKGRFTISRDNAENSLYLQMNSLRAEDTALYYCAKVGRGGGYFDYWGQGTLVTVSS

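Phage display of a naive human antibody library on the peptide gave the parent. Variants in AAYL51 differ from the parent at up to three CDR positions; double and triple changes were sampled at random. AlphaSeq pools MATa yeast showing the antibodies with MATalpha yeast showing the peptide. Pairs that bind mate more often; barcode pairs of the diploids are counted by sequencing. The ratio of observed to expected reads was calibrated, replicate by replicate, on BCL2-family standards whose Kd was known from biolayer interferometry. There are three technical replicates.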

Changes read parent residue, position, new residue, counted from the first residue of the VH shown. All variants listed here change Y105 of the VH, counted from its first residue. Numbers give log10(Kd / nM), so 0 is 1 nM and 3 is 1 µM. Smaller is tighter. The mean shown is taken over the replicates in which the pair was detected. "ND" means that the variant was in the library but no mating with the target was seen in that replicate; the authors take this as a sign of poor binding, and no number exists. In this assay the parent's reference entry averaged 1.86; its copy inside this library read 0.88. Three control strains display no target. For library AAYL51, 21% of the pairings with them gave a signal, with a median of 4.54 and one signal in twenty below 3.26, so weak values seen in few replicates may be background.

With G50L D62K Y105G the result was ND, ND, ND.
With T28W V99W Y105Q the result was ND, 5.04, 4.11 (mean 4.57).
With D30I H35R Y105M the result was ND, 5.36, ND.
With G100Q G102P Y105A the result was 4.12, ND, ND.
With D30K S63E Y105D the result was 1.54, 1.36, 1.17 (mean 1.36).
With V64R Y105D D107P the result was ND, ND, ND.
With S63A V99I Y105N the result was ND, ND, ND.
With I58L G103H Y105C the result was 3.77, ND, 4.96 (mean 4.37).
With S57Q A61W Y105W the result was 4.34, 5.98, ND (mean 5.16).
With I51P S63Y Y105S the result was 5.61, ND, ND.
With Y105W D107M the result was 2.65, 2.60, 2.65 (mean 2.63).
With Y32W V99A Y105N the result was 3.79, 3.86, ND (mean 3.82).
With Y32R S57W Y105W the result was 4.07, ND, ND.
With D31L G104E Y105H the result was 1.79, 1.99, 1.63 (mean 1.81).
With V64I Y105D the result was ND, ND, ND.
With D30R G103F Y105C the result was ND, ND, ND.
With G103K Y105V Y108G the result was ND, ND, ND.
With G26N A61L Y105S the result was 4.04, 5.09, 5.45 (mean 4.86).
With V64W G104L Y105F the result was ND, 4.17, ND.
With S63W Y105L D107S the result was 1.30, 1.55, 1.13 (mean 1.33).
With A33L G59R Y105E the result was 4.77, ND, ND.
With G104R Y105T D107F the result was 4.92, ND, ND.
With I58T Y105V the result was 4.88, 4.34, 5.18 (mean 4.80).
With D31Y S52F Y105K the result was ND, ND, ND.
With G59W Y105F D107V the result was 5.71, 4.84, 5.79 (mean 5.45).
With Y60P S63K Y105M the result was ND, ND, ND.
With K65D Y105D the result was 5.10, ND, ND.
With D62S K65R Y105W the result was 3.10, 2.58, 2.24 (mean 2.64).
With G50P I51R Y105Q the result was ND, ND, ND.
With S63T Y105Q F106P the result was ND, ND, 3.71.
With F29R G103A Y105M the result was 5.01, 4.90, 4.50 (mean 4.80).
With S55H I58A Y105R the result was 2.69, 1.99, 1.87 (mean 2.18).
With F29D A33L Y105A the result was ND, ND, ND.

The closing 2 entries, repeated:

changes,"replicates, log10 nM","mean, log10 nM"
S55H I58A Y105R,"2.69, 1.99, 1.87",2.18
F29D A33L Y105A,"ND, ND, ND",ND

The measurements come from Engelhart et al. 2022 (doi:10.1038/s41597-022-01779-4) through the FLAb antibody collection.